Target: Dual specificity protein kinase CLK1 (Homo sapiens, UniProt P49759)
Experiment: Inhibition of human CLK1 using myelin basic protein as substrate in presence of [gamma-33p]-ATP by radiometric hotspot kinase

Protein sequences, listed by entry. Tags and fused reporters are not part of them. Lines headed by an entry give the natural chain unless they say otherwise; changes in a name come on top.
UniProt P49759: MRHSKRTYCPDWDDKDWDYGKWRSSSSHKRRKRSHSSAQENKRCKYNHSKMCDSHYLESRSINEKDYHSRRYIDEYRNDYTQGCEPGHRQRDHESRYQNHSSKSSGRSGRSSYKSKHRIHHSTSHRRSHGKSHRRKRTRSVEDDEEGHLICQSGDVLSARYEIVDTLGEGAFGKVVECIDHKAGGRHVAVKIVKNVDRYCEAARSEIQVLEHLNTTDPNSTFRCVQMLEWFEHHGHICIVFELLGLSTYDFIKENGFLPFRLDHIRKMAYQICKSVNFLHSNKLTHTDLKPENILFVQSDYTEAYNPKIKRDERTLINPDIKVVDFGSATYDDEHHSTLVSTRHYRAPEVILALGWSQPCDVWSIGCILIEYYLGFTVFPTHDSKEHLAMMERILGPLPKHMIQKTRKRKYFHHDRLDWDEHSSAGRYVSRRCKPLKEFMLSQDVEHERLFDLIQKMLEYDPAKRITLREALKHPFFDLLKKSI

SMILES: CCc1cc2c(cc1-c1cccc(S(=O)(=O)F)c1)C(C)(C)c1[nH]c3cc(C#N)ccc3c1C2=O
- IC50: 422 nM

Source: ChEMBL document CHEMBL5321194 (J Med Chem, 2023)
